Data on two compounds can be found in PubChem BioAssay AID2176 (The Scripps Research Institute Molecular Screening Center, 2009).

Chains of the proteins cited; added tags and fusions are not shown.
UniProt P78417, whole entry: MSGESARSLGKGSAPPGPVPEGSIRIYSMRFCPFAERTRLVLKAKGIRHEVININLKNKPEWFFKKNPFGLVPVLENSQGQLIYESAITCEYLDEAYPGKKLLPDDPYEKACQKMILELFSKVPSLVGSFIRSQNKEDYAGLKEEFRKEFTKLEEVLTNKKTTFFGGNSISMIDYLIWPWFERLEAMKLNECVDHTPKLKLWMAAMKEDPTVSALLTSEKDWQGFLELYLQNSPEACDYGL

This is a selection; strong and weak results do not stand in their true shares. The source made the active and inactive calls.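 How the source made its calls: active means inhibition above the primary screen's cutoff, its mean inhibition plus 3 SD (cut at about 35% in these data); inactive means the rest.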

This experiment concerns the target Glutathione S-transferase omega-1 (Homo sapiens) (UniProt P78417). The experiment in a line: recombinant GSTO1 blockers, retest – biochemical, fluorescence polarization, triplicate, counter-screen for RBBP9 inhibitor project, confirmation (AID 2176).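 Further: loss of polarization as inhibitors block binding of rhodamine sulfonate ester activity probe; 0% = GSTO1 with DMSO and 100% = wells lacking GSTO1 enzyme.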 The conditions noted are these: recombinant GSTO1, probe fluorescence polarization; at 5.96 µM; stronger effect = higher value.
Regarding `CC1=C2N=C(C=C3N=C(C(C)=C4[N-][C@@](C)([C@@H]5N=C1[C@](C)(CCC(=O)NC[C@@H](C)OP(=O)([O-])O[C@H]1[C@@H](O)[C@@H](n6cnc7cc(C)c(C)cc76)O[C@@H]1CO)[C@H]5CC(N)=O)[C@@](C)(CC(N)=O)[C@@H]4CCC(N)=O)[C@@](C)(CC(N)=O)[C@@H]3CCC(N)=O)C(C)(C)[C@@H]2CCC(N)=O.[C-]#N.[Co+3]`, the inhibition was active: 72.5%. With `O=[N+]([O-])c1cc([N+](=O)[O-])c(Nc2cccnc2)c([N+](=O)[O-])c1` the figure was inactive: 12%.
